Ab-91 heavy chain CDR variants: yeast mating affinities

The measurements come from Engelhart et al. 2022 (doi:10.1038/s41597-022-01779-4) through the FLAb antibody collection.

The target is the same throughout: PDVDLGDISGINAS, from the HR2 region of SARS-CoV-2 spike.

Ab-91 is the parent antibody, in scFv form: VL, then three GGGGS repeats, then VH. The light chain is unchanged in all variants.
VL: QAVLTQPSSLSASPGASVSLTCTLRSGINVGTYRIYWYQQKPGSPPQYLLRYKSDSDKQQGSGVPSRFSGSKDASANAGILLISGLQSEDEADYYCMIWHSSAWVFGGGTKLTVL
VH: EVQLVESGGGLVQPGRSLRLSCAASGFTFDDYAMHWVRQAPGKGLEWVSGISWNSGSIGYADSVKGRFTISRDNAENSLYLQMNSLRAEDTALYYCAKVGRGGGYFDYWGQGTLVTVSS

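The parent was found by panning a naive human phage display library on the peptide. Variants in AAYL51 differ from the parent at up to three CDR positions; double and triple changes were sampled at random. Affinity was read by AlphaSeq, a pooled yeast mating assay with surface-displayed partners. The frequency of each diploid, read from paired DNA barcodes, reflects how well the two displayed proteins bind. Each replicate has its own calibration line, from reference interactions of the BCL2 family. Mating was done three times.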

Positions count from residue 1 of the parent VH; H35R puts R in place of H.
Every variant below is changed at H35 of the VH (sequential numbering).
Values are log10 of the apparent Kd in nM; lower means stronger binding.
An entry "nd" has no value in the source: the pair was not observed among the diploids in that replicate. This suggests poor binding but is not conclusive.
Nonspecific signal, from three strains lacking the peptide, appeared in 21% of pairings of library AAYL51, centred on 4.54 (5% of these signals below 3.26); values are not corrected for it.

- H35R+I51C+G104V = nd, nd, nd
- F27T+H35V+S63P = nd, nd, nd
- H35Y+Y60E+G103Y = 4.88, nd, nd
- H35Q+W53R+G59M = nd, 4.51, nd
- H35R+S57I+K65D = nd, 4.00, nd
- T28Y+H35Q+W53H = nd, nd, nd
- G26W+Y32M+H35W = nd, nd, nd
- T28I+H35S+I51E = nd, nd, nd
- H35T = 5.59, nd, nd
- H35G+S52V+Y60F = nd, 4.31, nd
- H35R+D62A+F106L = nd, nd, nd
- F27P+H35F+G103S = 3.97, nd, nd
- H35L+D62C = nd, nd, nd
- H35A+G56C = 3.63, nd, nd
- H35C+Y60V+A61E = nd, nd, nd
- Y32I+H35Q+K65Y = 4.74, 4.23, 5.66
- H35S = nd, 4.52, 4.48
- H35C+G56H+S57L = nd, nd, nd
- H35P+S63H+R101K = nd, nd, nd
- D31Y+H35S+D62Y = nd, nd, nd
- M34L+H35Q+D107N = nd, 5.19, nd
- M34P+H35C+D62T = nd, nd, nd
- G26E+H35V = nd, 3.59, 3.10
- D30G+H35D+D62L = 4.70, nd, 3.68
- D30V+H35C+S63F = 2.25, 2.37, 2.36
- H35Y+Y105I = nd, nd, nd
- H35C+G100P = 5.10, 3.94, nd
- D30I+H35L = nd, nd, nd
- H35V+S57H+G100T = nd, nd, nd
- H35G+G59L+Y105W = nd, nd, 5.03
- H35V = nd, 3.30, nd
- H35C+G102K = nd, 4.34, nd
- F27L+H35C+V99I = 4.18, nd, nd
- A33E+H35M+N54T = 5.37, 4.77, 4.91
- H35V+S52I+G56F = nd, nd, nd
- A33F+H35F+Y105W = nd, nd, nd

Extract of 3 entries:

changes	log10 Kd (nM) by replicate
H35V+S52I+G56F	nd, nd, nd
M34P+H35C+D62T	nd, nd, nd
F27L+H35C+V99I	4.18, nd, nd